The record followed here is ChEMBL document CHEMBL4823296, “NMR-Guided Design of Potent and Selective EphA4 Agonistic Ligands” (J Med Chem, 2021).

Sequences of proteins named here, by UniProt entry; tags and fusion partners are left off.
UniProt P54764, whole entry: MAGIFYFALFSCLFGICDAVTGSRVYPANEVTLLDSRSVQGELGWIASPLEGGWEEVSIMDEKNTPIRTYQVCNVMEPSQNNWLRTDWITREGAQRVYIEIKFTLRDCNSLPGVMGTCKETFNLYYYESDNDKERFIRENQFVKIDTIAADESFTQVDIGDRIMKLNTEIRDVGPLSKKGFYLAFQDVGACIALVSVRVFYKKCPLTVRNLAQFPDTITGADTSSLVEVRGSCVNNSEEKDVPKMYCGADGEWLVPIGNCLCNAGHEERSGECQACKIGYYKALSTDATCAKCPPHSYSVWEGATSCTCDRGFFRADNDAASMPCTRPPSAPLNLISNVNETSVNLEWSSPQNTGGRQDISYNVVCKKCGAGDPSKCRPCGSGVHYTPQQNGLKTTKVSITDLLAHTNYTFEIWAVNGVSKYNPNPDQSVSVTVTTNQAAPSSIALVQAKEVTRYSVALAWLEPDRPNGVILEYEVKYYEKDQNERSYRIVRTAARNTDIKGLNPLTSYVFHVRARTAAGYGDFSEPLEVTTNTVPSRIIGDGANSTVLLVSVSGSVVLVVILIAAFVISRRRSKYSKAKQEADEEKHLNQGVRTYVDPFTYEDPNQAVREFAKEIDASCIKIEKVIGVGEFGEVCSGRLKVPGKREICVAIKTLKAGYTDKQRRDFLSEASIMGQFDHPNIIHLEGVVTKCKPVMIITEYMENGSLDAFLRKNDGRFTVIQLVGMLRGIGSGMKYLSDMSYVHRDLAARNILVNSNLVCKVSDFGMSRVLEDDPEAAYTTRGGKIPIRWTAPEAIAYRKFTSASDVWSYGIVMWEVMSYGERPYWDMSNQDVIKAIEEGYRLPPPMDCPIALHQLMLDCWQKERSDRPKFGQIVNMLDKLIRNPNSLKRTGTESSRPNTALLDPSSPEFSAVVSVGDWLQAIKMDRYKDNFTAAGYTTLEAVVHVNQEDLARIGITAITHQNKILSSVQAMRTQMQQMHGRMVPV

This test has as its target Ephrin type-A receptor 4 (Homo sapiens, UniProt P54764). The experiment in a line: Binding affinity to N-terminal His tagged EphA4 LBD (unknown origin) (29 to 209 residues) expressed in Rosetta-Gami B(DE3) cells by isothermal titration calorimetry.

In the case of `COc1ccc2[nH]cc(CCNC(=O)[C@H](Cc3ccncc3)NC(=O)[C@H](Cc3ccc(Cl)cc3)NC(=O)[C@H](Cc3c[nH]c4ccc(O)cc34)NC(=O)CCCN)c2c1`, binding was put at a Kd of 400 nM.

The term Kd denotes the free concentration of one partner at which half of the binding sites on the other are occupied at equilibrium, for simple one-to-one binding. A higher Kd goes with lower affinity.
